# Laboratory results reported in patent US20260382581A1, “COMPOSITIONS COMPRISING CYTISINE IN THE TREATMENT AND/OR PREVENTION OF ADDICTION IN SUBJECTS IN NEED THEREOF” (published 2026).
# Marks after values point to notes of the source that are not given here.
# Assay: claude: adverse events, incl. those leading to dose reduction, interruption or discontinuation
# Description: Cytisinicline was well tolerated and no serious adverse events were reported. Similar rates of adverse events (AE's) were observed between treatment arms (54.7% in the placebo arm vs. 50.9% in the cytisinicline arm). The most commonly reported (>5%) AEs in the placebo arm were anxiety, headache, upper respiratory tract infection, nausea, and Covid-19 infection. In the cytisinicline arm, >5% AEs reported were sleep disturbances, anxiety, headache, fatigue, and upper respiratory tract infection.
# A second measurement consisted of biochemically verified continuous vaping abstinence at any time during treatment, with vaping abstinence at Week 3-6 or Week 6-9 for of cytisinicline treatment vs placebo. 7-day point prevalence rates were compared for vaping abstinence (Week 2 to 12) (FIG. 62). An additional measurement included reduction in daily vaping as measured by cotinine, where cytisinicline treatment vs placebo for a reduction in nicotine vaping using weekly quantitative cotinine levels from Week 2 to Week 12. Safety was assessed by adverse effects and serious adverse effects, considering number, severity, and attribution to study drug. Early beneficial effect was observed and continued throughout the 12 weeks with some weeks at or close to statistical significance (weeks 4, 6, 7, 8, 9, and 12) (FIGS. 63-65). Cotinine values less than 1 were converted to 1 due to extreme asymmetry (FIG. 65)
# Adverse Events are coded using MedDRA version 23.1.
# [1] = Action Taken With Study Drug, Safety Set, N = 106
# [2] = Relationship, Safety Set, N = 106
smiles,measurement,setting,value
O=c1cccc2n1C[C@@H]1CNC[C@H]2C1,AEs reported in >5%,3 mg TID 12 weeks,"sleep disturbances, anxiety, headache, fatigue, and upper respiratory tract infection"
same,serious adverse events,3 mg TID 12 weeks,no serious adverse events were reported
same,tolerability,3 mg TID 12 weeks,well tolerated
same,Any Serious Adverse Events,3 mg TID 12 wks (N = 106),0(0) n (%)
same,At Least One TEAE,3 mg TID 12 wks (N = 106),54(50.9) n (%)
same,"TEAE, Mild",3 mg TID 12 wks (N = 106),50(47.2) n (%)
same,"TEAE, Moderate",3 mg TID 12 wks (N = 106),16(15.1) n (%)
same,"TEAE, Related",3 mg TID 12 wks (N = 106),30(28.3) n (%)
same,"TEAE, Severe","3 mg TID 12 wks (N = 106), Abnormal Dreams",1(0.9)* n (%)
same,"Abnormal dreams, %","12 wks, N = 106",12.3%
same,"Anxiety, %","12 wks, N = 106",9.4%
same,"At Least One TEAE, %","12 wks, N = 106",50.9%
same,"COVID-19, %","12 wks, N = 106",2.8%
same,"Fatigue, %","12 wks, N = 106",5.7%
same,"Headache, %","12 wks, N = 106",6.6%
same,"Insomnia, %","12 wks, N = 106",10.4%
same,"Nausea, %","12 wks, N = 106",4.7%
same,"Upper respiratory tract infection, %","12 wks, N = 106",5.7%
same,"TEAE, Dose Interrupted, events",[1],1 Events
same,"TEAE, Dose Interrupted, percent of subjects",[1],0.9%
same,"TEAE, Dose Interrupted, subjects",[1],1 n
same,"TEAE, Dose Not Changed, events",[1],101 Events
same,"TEAE, Dose Not Changed, percent of subjects",[1],48.1%
same,"TEAE, Dose Not Changed, subjects",[1],51 n
same,"TEAE, Dose Reduced, events",[1],3 Events
same,"TEAE, Dose Reduced, subjects",[1],3 n
same,"TEAE, Drug Withdrawn, events",[1],7 Events
same,"TEAE, Drug Withdrawn, percent of subjects",[1],3.8%
same,"TEAE, Drug Withdrawn, subjects",[1],4 n
same,"TEAE, action Not Applicable, events",[1],7 Events
same,"TEAE, action Not Applicable, percent of subjects",[1],4.7%
same,"TEAE, action Not Applicable, subjects",[1],5 n
same,TEAE outcome Fatal,"Outcome, Safety Set, N = 106",0 n
same,"TEAE outcome Not recovered/Not resolved, percent of subjects","Outcome, Safety Set, N = 106",13.2%
same,"TEAE outcome Not recovered/Not resolved, subjects","Outcome, Safety Set, N = 106",14 n
same,TEAE outcome Recovered/Resolved with sequelae,"Outcome, Safety Set, N = 106",0 n
same,"TEAE outcome Recovered/Resolved, percent of subjects","Outcome, Safety Set, N = 106",44.3%
same,"TEAE outcome Recovered/Resolved, subjects","Outcome, Safety Set, N = 106",47 n
same,"TEAE outcome Recovering/Resolving, percent of subjects","Outcome, Safety Set, N = 106",2.8%
same,"TEAE outcome Recovering/Resolving, subjects","Outcome, Safety Set, N = 106",3 n
same,"Definite related TEAE, events",[2],3 Events
same,"Definite related TEAE, percent of subjects",[2],2.8%
same,"Definite related TEAE, subjects",[2],3 n
same,"Not Related TEAE (sub-category), events",[2],55 Events
same,"Not Related TEAE (sub-category), percent of subjects",[2],30.2%
same,"Not Related TEAE (sub-category), subjects",[2],32 n
same,"Not Related TEAE (total: not related and unlikely), events",[2],65 Events
same,"Not Related TEAE (total: not related and unlikely), percent of subjects",[2],35.8%
same,"Not Related TEAE (total: not related and unlikely), subjects",[2],38 n
same,"Possible related TEAE, events",[2],29 Events
same,"Possible related TEAE, percent of subjects",[2],16.0%
same,"Possible related TEAE, subjects",[2],17 n
same,"Probable related TEAE, events",[2],22 Events
same,"Probable related TEAE, percent of subjects",[2],15.1%
same,"Probable related TEAE, subjects",[2],16 n
same,"Related TEAE, events",[2],54 Events
same,"Related TEAE, percent of subjects",[2],28.3%
same,"Related TEAE, subjects",[2],30 n
same,"Unlikely related TEAE, events",[2],10 Events
same,"Unlikely related TEAE, percent of subjects",[2],8.5%
same,"Unlikely related TEAE, subjects",[2],9 n
same,"AE, events","Safety Set, N = 106",123 Events
same,"At Least One AE, percent of subjects","Safety Set, N = 106",52.8%
same,"At Least One AE, subjects","Safety Set, N = 106",56 n
same,At Least One Related Serious TEAE,"Safety Set, N = 106",0 n
same,At Least One Serious TEAE,"Safety Set, N = 106",0 n
same,"At Least One TEAE Leading to Dose Reduction, Dose Interrupted or Study Drug Discontinuation, subjects","Safety Set, N = 106",7 n
same,"TEAE leading to dose reduction, interruption or discontinuation: Abdominal discomfort, subjects","Safety Set, N = 106",1 n
same,"TEAE leading to dose reduction, interruption or discontinuation: Abnormal dreams, subjects","Safety Set, N = 106",1 n
same,"TEAE leading to dose reduction, interruption or discontinuation: Anal fissure, subjects","Safety Set, N = 106",1 n
same,"TEAE leading to dose reduction, interruption or discontinuation: Anxiety, subjects","Safety Set, N = 106",2 n
same,"TEAE leading to dose reduction, interruption or discontinuation: Depression, subjects","Safety Set, N = 106",0 n
same,"TEAE leading to dose reduction, interruption or discontinuation: Fatigue, subjects","Safety Set, N = 106",1 n
same,"TEAE leading to dose reduction, interruption or discontinuation: Headache, subjects","Safety Set, N = 106",0 n
same,"TEAE leading to dose reduction, interruption or discontinuation: Insomnia, subjects","Safety Set, N = 106",2 n
same,"TEAE leading to dose reduction, interruption or discontinuation: Irritability, subjects","Safety Set, N = 106",1 n
same,"TEAE leading to dose reduction, interruption or discontinuation: Nausea, subjects","Safety Set, N = 106",0 n
same,"TEAE leading to dose reduction, interruption or discontinuation: Panic attack, subjects","Safety Set, N = 106",2 n
same,"TEAE leading to dose reduction, interruption or discontinuation: Pregnancy, subjects","Safety Set, N = 106",0 n
same,"TEAE: Abdominal discomfort, percent","Safety Set, N = 106",(0.9) %
same,"TEAE: Abdominal discomfort, subjects","Safety Set, N = 106",1 n
same,"TEAE: Abnormal dreams, percent","Safety Set, N = 106",(12.3) %
same,"TEAE: Abnormal dreams, subjects","Safety Set, N = 106",13 n
same,"TEAE: Agitation, subjects","Safety Set, N = 106",0 n
same,"TEAE: Akathisia, percent","Safety Set, N = 106",(0.9) %
same,"TEAE: Akathisia, subjects","Safety Set, N = 106",1 n
same,"TEAE: Alanine aminotransferase increased, subjects","Safety Set, N = 106",0 n
same,"TEAE: Alveolar osteitis, subjects","Safety Set, N = 106",0 n
same,"TEAE: Anal fissure, percent","Safety Set, N = 106",(0.9) %
same,"TEAE: Anal fissure, subjects","Safety Set, N = 106",1 n
same,"TEAE: Animal bite, percent","Safety Set, N = 106",(0.9) %
same,"TEAE: Animal bite, subjects","Safety Set, N = 106",1 n
same,"TEAE: Anxiety, percent","Safety Set, N = 106",(9.4) %
same,"TEAE: Anxiety, subjects","Safety Set, N = 106",10 n
same,"TEAE: Aspartate aminotransferase increased, subjects","Safety Set, N = 106",0 n
same,"TEAE: Attention deficit hyperactivity disorder, percent","Safety Set, N = 106",(0.9) %
same,"TEAE: Attention deficit hyperactivity disorder, subjects","Safety Set, N = 106",1 n
same,"TEAE: Back pain, percent","Safety Set, N = 106",(0.9) %
same,"TEAE: Back pain, subjects","Safety Set, N = 106",1 n
same,"TEAE: Bronchitis, percent","Safety Set, N = 106",(1.9) %
same,"TEAE: Bronchitis, subjects","Safety Set, N = 106",2 n
same,"TEAE: COVID-19, percent","Safety Set, N = 106",(2.8) %
same,"TEAE: COVID-19, subjects","Safety Set, N = 106",3 n
same,"TEAE: Chlamydial infection, percent","Safety Set, N = 106",(0.9) %
same,"TEAE: Chlamydial infection, subjects","Safety Set, N = 106",1 n
